Measurements taken from patent US20100255020A1, “METHOD FOR INDUCING CYTOTOXIC T-CELLS, CYTOTOXIC T-CELL INDUCERS, AND PHARMACEUTICAL COMPOSITIONS AND VACCINES EMPLOYING THEM” (NEC CORPORATION, priority 2007, published 2010).

Tested on: peptide-loaded target cells (C1R-A24, RA24, T2)
Assay: 51Cr release assay of PBMC killing activity against peptide-loaded target cells
Assay type: cell-based, human
Conditions: HLA-A*0201 binding peptides, T2 targets
Experimental: As a next experiment, PBMCs from patients with malignant tumors were stimulated with peptide in vitro and their cytolytic activity was examined against peptide-loaded tatrget cells by ^51Cr release assay described later.
Target cells were labeled with ^51Cr and loaded with HLA-binding peptide of interest. 5,000 or 10,000 cells/well of target cells were placed in 96-well U-bottom plate, and then, PBMCs having been stimulated twice in vitro were added thereto as a responder. Cells were incubated at 37° C. for 5 hours and ^51Cr released from the damaged cells during the incubation was measured, and % specific lysis was calculated. As target cells C1R-A24 or RA24 cells were used as a target when reactivity to HLA-A*2402 binding peptides were examined, and T2 cells were used as a target and incubation was carried out for 2 hours after addition of responder cells. Percent specific lysis was calculated as follows. % specific lysis=(test release-spontaneous release)/(total release-spontaneous release)×100.

RMFPNAPYL (listed as Homo sapiens) [Db126, reference compound]
Peptide-reactive cytolytic cells in PBMCs of patients: contain cytolytic cells that recognize
